# Results reported in PubChem BioAssay AID588579 (National Center for Advancing Translational Sciences (NCATS), 2011).
# Sequences of proteins named here, by UniProt entry; tags and fusion partners are left off. A change or cut given only in a name is not applied to a line headed by its entry.
# UniProt Q9UBT6: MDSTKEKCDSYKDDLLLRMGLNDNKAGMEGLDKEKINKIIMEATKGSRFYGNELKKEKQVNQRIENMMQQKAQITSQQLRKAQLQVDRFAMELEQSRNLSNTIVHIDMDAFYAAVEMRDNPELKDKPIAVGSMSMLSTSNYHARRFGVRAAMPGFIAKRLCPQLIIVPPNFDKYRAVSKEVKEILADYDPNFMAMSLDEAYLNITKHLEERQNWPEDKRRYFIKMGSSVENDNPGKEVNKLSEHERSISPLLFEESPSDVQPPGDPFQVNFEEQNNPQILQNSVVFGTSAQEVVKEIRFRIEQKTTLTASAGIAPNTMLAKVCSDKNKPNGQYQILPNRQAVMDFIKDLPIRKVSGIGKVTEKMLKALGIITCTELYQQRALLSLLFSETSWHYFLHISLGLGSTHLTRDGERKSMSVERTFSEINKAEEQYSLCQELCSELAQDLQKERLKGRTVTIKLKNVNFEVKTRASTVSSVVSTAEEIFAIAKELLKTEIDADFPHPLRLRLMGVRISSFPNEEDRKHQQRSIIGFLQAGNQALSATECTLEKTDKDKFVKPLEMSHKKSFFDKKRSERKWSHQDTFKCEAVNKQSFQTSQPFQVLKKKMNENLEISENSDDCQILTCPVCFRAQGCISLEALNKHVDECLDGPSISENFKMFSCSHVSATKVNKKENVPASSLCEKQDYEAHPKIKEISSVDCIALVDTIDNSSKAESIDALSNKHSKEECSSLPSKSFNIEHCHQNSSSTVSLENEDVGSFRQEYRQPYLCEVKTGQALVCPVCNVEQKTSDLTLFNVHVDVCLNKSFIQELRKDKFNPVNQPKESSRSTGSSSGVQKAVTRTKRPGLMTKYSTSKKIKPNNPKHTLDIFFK
# The entries are a selection whose mix differs from that of the whole data set. Records with an inconclusive call do not appear. Activity calls are given as the source filed them. The call rests on the fitted dose curve; in most records, active means well fitted inhibition curve with a large enough effect; inconclusive means small, poorly fitted or top-dose-only effect, or another doubt; inactive means no such curve, though single readings can be large or run the other way.
# Target: DNA polymerase kappa (Homo sapiens) (UniProt Q9UBT6)
# Test: qHTS for Inhibitors of Polymerase Kappa
# Conditions: purified Pol kappa, fluorescent DNA synthesis assay, 10 min
# Method: The processing and repair of DNA interstrand crosslinks (ICL) in eukaryotic cells are extremely complex, potentially involving multiple DNA repair and damage tolerance pathways, including homologous recombination, nucleotide excision repair, translesion synthesis (TLS), and cell cycle checkpoints.
# To that end, in a collaboration between the Oregon Health & Science University and the NIH Chemical Genomics Center a 1536-well high-throughput screen was developed. This fluorescent screen was assayed against the NIH Molecular Libraries Small Molecule Repository (MLSMR) to discover inhibitors of Pol Kappa.
# NIH Chemical Genomics Center [NCGC]
# NIH Molecular Libraries Probe Centers Network [MLPCN]
# Assay Submitter (PI): Stephen Lloyd, Oregon Health & Science University
# Three microliters of reagents (buffer in column 3 and 4 as negative control and 10 nM Pol kappa in columns 1, 2, and 5-48) were dispensed into a 1536-well black solid-bottom plate. Compounds (23 nL) were transferred via Kalypsys pin tool equipped with 1536-pin array. The plates were then incubated for 15 min at room temperature, and 1 uL substrate (50 nM final concentration) were then added to start the reaction and kinetically read twice at 0 min and 10 min on the Viewlux reader
# On the % scale 0 is the no-effect control and ±100 the full control effect.
smiles,measurement,setting,value
O=P(Nc1nccs1)(c1ccccc1)c1nc2ccccc2s1 (stereo not drawn),"activity, negative = inhibition",at 107 µM (top of the series),inactive: -3.8%
O=P(Nc1nccs1)(Oc1ccccc1)Oc1ccccc1,"activity, negative = inhibition",at 107 µM (top of the series),inactive: -0.732%
CCOP1(=S)c2c(C)nn(CCC#N)c2N=C(c2ccccc2F)N1C (stereo not drawn),"activity, negative = inhibition",at 107 µM (top of the series),inactive: -16.9%
O=C(O)COc1ccc([As](=O)(O)O)cc1[N+](=O)[O-],"activity, negative = inhibition",at 107 µM (top of the series),inactive: -13.7%
Nc1ccccc1[As](=O)(O)c1ccccc1,"activity, negative = inhibition",at 107 µM (top of the series),inactive: 5.95%
NC(=O)Nc1ccc([As](=O)(O)O)cc1,"activity, negative = inhibition",at 12 µM (top of the series),inactive: -5.41%
same,"activity, negative = inhibition",at 60.1 µM (top of the series),inactive: -1.22%
same,"activity, negative = inhibition",at 107 µM (top of the series),inactive: 6.41%
CN(C(=O)Cc1ccccc1)[C@@H]1CC[C@]2(CCCO2)C[C@H]1N1CCCC1,"activity, negative = inhibition",at 60.1 µM (top of the series),inactive: -17.5%
same,"activity, negative = inhibition",at 107 µM (top of the series),inactive: -8.25%
CCOP1(=S)c2c(C)nn(CCC#N)c2N=C(c2ccc(F)cc2)N1C (stereo not drawn),"activity, negative = inhibition",at 60.1 µM (top of the series),inactive: -13.8%
N#CCCN(C(=O)COC(=O)C(O)(c1ccccc1)c1ccccc1)c1ccc(F)cc1,"activity, negative = inhibition",at 107 µM (top of the series),inactive: -9.84%
CN(C(=O)Cc1ccc(Cl)c(Cl)c1)[C@H]1CC[C@@]2(CCCO2)C[C@@H]1N1CCCC1,"activity, negative = inhibition",at 107 µM (top of the series),inactive: -9.45%
O=[N+]([O-])c1ccc2c(c1)nnn2O,"activity, negative = inhibition",at 107 µM (top of the series),inactive: -6.21%
CN(C(=O)Cc1ccc(Cl)c(Cl)c1)[C@@H]1CC[C@]2(CCCO2)C[C@H]1N1CCCC1,"activity, negative = inhibition",at 19.4 µM (top of the series),inactive: 0.98%
same,"activity, negative = inhibition",at 60.1 µM (top of the series),inactive: -3.33%
O=C(OC1CN2CCC1CC2)c1ccc(Cl)cc1 (stereo not drawn),"activity, negative = inhibition",at 107 µM (top of the series),inactive: 2.23%
CS(=O)(=O)c1ccc(Cl)c(NC(=O)COC(=O)C(O)(c2ccccc2)c2ccccc2)c1,"activity, negative = inhibition",at 107 µM (top of the series),inactive: -6.41%
COc1cc(C(=O)NCC2(N3CCOCC3)CCCCC2)cc(Cl)c1OC(C)C,"activity, negative = inhibition",at 107 µM (top of the series),inactive: -6.57%
O=[As](O)(O)c1cccnc1,"activity, negative = inhibition",at 107 µM (top of the series),inactive: -10.6%
O=[As](O)(c1cccc(O)c1)c1cccc(O)c1,"activity, negative = inhibition",at 107 µM (top of the series),inactive: -8.86%
Cc1cccc(OCC(=O)OC2CN3CCC2CC3)c1 (stereo not drawn),"activity, negative = inhibition",at 107 µM (top of the series),inactive: -14.5%
Nc1cccc2c([As](=O)(O)O)cccc12,"activity, negative = inhibition",at 107 µM (top of the series),inactive: -19.2%
CCCOP(=S)(Nc1nc(N)cc(=O)[nH]1)OCCC,"activity, negative = inhibition",at 107 µM (top of the series),inactive: -7.84%
CCOP(=O)(Nc1cccc2ccccc12)OCC,"activity, negative = inhibition",at 107 µM (top of the series),inactive: -4.25%
COc1cc(C2NCCC3(OCCO3)C2(C)C)cc(OC)c1OC (stereo not drawn),"activity, negative = inhibition",at 107 µM (top of the series),inactive: 3.37%
CCOP(=O)(NC(=NC(C)c1ccccc1)NC(C)c1ccccc1)OCC (stereo not drawn),"activity, negative = inhibition",at 107 µM (top of the series),inactive: -11.4%
CCC1=CC2Cc3nc4ccc(Cl)cc4c(N)c3C(C1)C2 (stereo not drawn),"activity, negative = inhibition",at 107 µM (top of the series),inactive: 1.82%
O=P1(Nc2ccccn2)COc2ccccc2OC1,"activity, negative = inhibition",at 107 µM (top of the series),inactive: -17.2%
CN(CCCl)Cc1cc(Cl)c(NC2=NCCN2)c(Cl)c1,"activity, negative = inhibition",at 19.4 µM (top of the series),inactive: 0.396%
same,"activity, negative = inhibition",at 60.1 µM (top of the series),inactive: -5.51%
same,"activity, negative = inhibition",at 107 µM (top of the series),inactive: -14.5%
CCOP(=O)(Nc1ccc(C)cn1)OCC,"activity, negative = inhibition",at 107 µM (top of the series),inactive: 9.39%
CC(C)(C)C(=O)NC(Sc1ncccn1)C(Cl)(Cl)Cl (stereo not drawn),"activity, negative = inhibition",at 107 µM (top of the series),inactive: -12.5%
Clc1n[nH]nc1-c1nn[nH][15n]1,"activity, negative = inhibition",at 107 µM (top of the series),inactive: -3.28%
COc1ccccc1CNC(=O)COC(=O)C(O)(c1ccccc1)c1ccccc1,"activity, negative = inhibition",at 107 µM (top of the series),inactive: -16.7%
CN(C(=O)Cc1ccc(Cl)c(Cl)c1)[C@@H]1CCCC[C@H]1N1CCCC1,"activity, negative = inhibition",at 19.4 µM (top of the series),inactive: -1.43%
same,"activity, negative = inhibition",at 107 µM (top of the series),inactive: -13.9%
CC(C)/C=N\N=C(\N)N[N+](=O)[O-],"activity, negative = inhibition",at 107 µM (top of the series),inactive: -1.97%
CC1(CBr)Cn2c(nc3ccccc3c2=O)S1 (stereo not drawn),"activity, negative = inhibition",at 107 µM (top of the series),inactive: -13.5%
COc1cc([N+](=O)[O-])ccc1[N+](=O)[O-],"activity, negative = inhibition",at 107 µM (top of the series),inactive: 8.65%
Cc1ccc(C(=O)OC2CN3CCC2CC3)cc1 (stereo not drawn),"activity, negative = inhibition",at 107 µM (top of the series),inactive: 3.26%
CC1CCC(C(C)C)C(OP(=O)(Nc2ccccn2)c2ccccc2)C1 (stereo not drawn),"activity, negative = inhibition",at 107 µM (top of the series),inactive: -15.3%
Cc1nn(-c2ccccc2)c2c1P(=O)(N1CCOCC1)N(C)C(c1ccccc1)=N2 (stereo not drawn),"activity, negative = inhibition",at 107 µM (top of the series),inactive: -10.8%
CN(C)C1(CNC(=O)c2ccc(S(C)(=O)=O)cc2)CCCCC1,"activity, negative = inhibition",at 107 µM (top of the series),inactive: -4.11%
CCCC1OP(=O)(Nc2ccccc2)OCC1CC (stereo not drawn),"activity, negative = inhibition",at 107 µM (top of the series),inactive: -15.3%
O=C(/C=C/c1ccccc1)OC1CN2CCC1CC2 (stereo not drawn),"activity, negative = inhibition",at 107 µM (top of the series),inactive: -15.4%
O=P1(Nc2ncccn2)COc2ccccc2OC1,"activity, negative = inhibition",at 107 µM (top of the series),inactive: -0.156%
Nc1cccc([As](=O)(O)c2ccccc2)c1,"activity, negative = inhibition",at 107 µM (top of the series),inactive: -10.5%
NS(=O)(=O)c1cccc(NC(=O)COC(=O)C(O)(c2ccccc2)c2ccccc2)c1,"activity, negative = inhibition",at 107 µM (top of the series),inactive: 0.137%
O=P1(Nc2ccc(Br)cn2)COc2ccccc2OC1,"activity, negative = inhibition",at 107 µM (top of the series),inactive: -9.31%
O=[As](O)(c1cccs1)c1cccs1,"activity, negative = inhibition",at 107 µM (top of the series),inactive: 10.9%
Cc1ccc(OCC(=O)OC2CN3CCC2CC3)cc1 (stereo not drawn),"activity, negative = inhibition",at 107 µM (top of the series),inactive: 5.34%
